Consider 2 molecules from article PMC3256935 (Journal of Medicinal Chemistry, 2011).

One assay concerns the target T1, TbNMT (Trypanosoma brucei brucei, UniProt Q388H8).
T1 sequence (Q388H8 1-446): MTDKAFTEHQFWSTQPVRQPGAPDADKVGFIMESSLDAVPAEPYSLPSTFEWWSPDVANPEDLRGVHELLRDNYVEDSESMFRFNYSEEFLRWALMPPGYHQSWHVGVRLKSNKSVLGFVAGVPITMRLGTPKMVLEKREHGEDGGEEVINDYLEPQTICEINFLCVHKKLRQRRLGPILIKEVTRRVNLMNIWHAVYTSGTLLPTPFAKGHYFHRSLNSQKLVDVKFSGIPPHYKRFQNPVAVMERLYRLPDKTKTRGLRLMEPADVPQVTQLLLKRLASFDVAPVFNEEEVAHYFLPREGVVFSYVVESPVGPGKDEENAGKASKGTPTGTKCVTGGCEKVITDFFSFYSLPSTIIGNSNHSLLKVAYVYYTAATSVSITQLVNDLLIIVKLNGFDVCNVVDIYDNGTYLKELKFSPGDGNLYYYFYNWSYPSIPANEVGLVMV
Conditions: varying CAP5.5 concentration; cited from earlier work.

In a further assay the test system is T. b. brucei GVR35. As to conditions: in vivo.
Assay [1] concerns T. brucei overexpressing TbNMT. Conditions: TbNMT overexpressed 5-fold in T. brucei; cited from earlier work.
The test system of assay [2] is incorporation of radiolabeled myristoyl-CoA into proteins. As to conditions: incubation of the parasites with compound; cited from earlier work.

For the molecule `COc1cc(C)c(S(=O)(=O)Nc2c(C)nn(C)c2C)c(C)c1C` [Compound 1, 4-Methoxy-2,3,6-trimethyl-N-(1,3,5-trimethyl-1H-pyrazol-4-yl)benzenesulfonamide], the “mode of inhibition against varying concentrations of substrate peptide” value at TbNMT was “competitive for substrate binding”.

As for `Cc1nn(C)c(C)c1NS(=O)(=O)c1c(Cl)cc(-c2ccnc(N3CCNCC3)c2)cc1Cl` [Compound 63, 2,6-Dichloro-4-(2-piperazin-1-ylpyridin-4-yl)-N-(1,3,5-trimethyl-1H-pyrazol-4-yl)benzenesulfonamide], the “survival in stage 2 HAT model” value in the assay with T. b. brucei GVR35 is on record as “No difference in survival time from that of vehicle control animals”. The “reduced sensitivity on overexpression of TbNMT” value in assay [1] is 8 fold. Further, the “effect on incorporation of radiolabeled myristoyl-CoA into proteins” value in assay [2] is listed as “prevented incorporation of radiolabeled myristoyl-CoA into proteins”.
